RAD52 inh = blocks human RAD52 DNA annealing; P43351; inhibition, % at 18.7 µM; 0.46% of 360,000 active; recombinant RAD52 DNA annealing, FRET fluorescence; AID 651710;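 active = every replicate showing at least 50% inhibition; inconclusive = mean inhibition at least 50% but not in every replicate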
RAD54 branch = blocks human RAD54 Holliday junction branch migration | Q92698 | FAM/BHQ fluorescence | inhibition, % at 10.4 µM | 0.14% of 360,000 active | AID 602329;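 active = mean normalized replicate activity at least 40 and at least half of replicates scoring 40 or more; inconclusive = only one of the two criteria met; inactive = mean below 40 and under half of replicates reaching 40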;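 note: 0% = median of neutral control wells and 100% = median of positive control wells; inhibitors cause a drop in the FAM fluorescence signal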
GSIS activator = primary screen for activators of insulin secretion dependent on glucose, INS-1E cells, GLuc reporter luminescence | 0.61% of 370,000 active | AID 743287 | INS-1E GLuc reporter insulin secretion, 2-3 h | activation, % at 16.6 µM;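 active = lowest replicate activation of at least 40%, so every replicate reaches that level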;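 note: 0% = median of neutral control wells and 100% = median of IBMX positive control wells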
Casp6 inh = blocks human caspase-6 cleavage activity; 0.53% of 350,000 active; inhibition, % at 12.5 µM; AID 686996; purified caspase-6, Z-VEID-R110 cleavage fluorescence;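 active = mean inhibition across replicates at least about 35%, with every replicate also reaching that limit, limit read from the data; inconclusive = only one of the two criteria met; inactive = neither criterion met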;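 note: 0% = median of neutral control wells and 100% = no fluorescence left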
Yeast UUG start = alters start codon recognition fidelity in yeast; S. cerevisiae UUG-firefly luciferase reporter, luminescence/redox ratio; activity score, % at 18.7 µM; hit rate 0.13% among 350,000;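 active = replicate mean at a twofold rise or more, about +100% in these data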;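 also: firefly luciferase made from a UUG start codon reports start codon fidelity; reporter light over untreated wells divided by growth signal over untreated wells; some hits fall short of that in this replicate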
PglD inh = blocks C. jejuni PglD acetyltransferase activity; purified PglD enzyme, DTNB colorimetric CoA detection; inhibition, % at 12.5 µM; 0.098% of 360,000 active; AID 602405; in the data active = inhibition above about 16%, passing the limit was not always enough; inconclusive = no clear call, values can overlap the other calls
RAD52 DNA ctr = binds DNA, flagging false RAD52 inhibitor hits; shares compounds with RAD52 inh; Salmon sperm DNA/acridine orange FP displacement, DNA binding; AC50, µM; 8% of 1,000 active; AID 652128;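 active = fitted half-maximal concentration for signal loss at or below twice the highest dose tested, in every separate run, actives reach about 64 µM in these data; inconclusive = runs disagree, or flat partial signal loss, or poor fit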
* = called active by the depositor; i = inactive; ? = inconclusive; nt = no result. Hits are enriched below; roughly 1.5% of the tested compounds scored in any of these assays.

| no. | SMILES | RAD52 inh | RAD54 branch | GSIS activator | Casp6 inh |
| --- | --- | --- | --- | --- | --- |
| 1 | C[C@@H]1CN([C@@H](C)CO)S(=O)(=O)c2ccc(-c3cncnc3)cc2O[C@H]1CN(C)C(=O)c1ccc2c(c1)OCO2 | -5 | 4 | 2 | -2 |
| 2 | O=[N+]([O-])c1ccc(COc2ccccc2CN2CCCCC2)cc1 | 1 | 1 | 0 | -5 |
| 3 | O=[N+]([O-])c1ccc(COc2ccccc2CN2CCCC2)cc1 | 77* | 9 | 1 | -23 |
| 4 | COc1ccc(C(=O)OC2CCN(c3ncc(C(F)(F)F)cc3Cl)CC2)cc1 | nt | -6 | nt | nt |
| 5 | COCCn1c(C)cc(C(=O)Cn2nc(C(=O)O)c3ccccc3c2=O)c1C | -13 | nt | -9 | -1 |
| 6 | CC(C)N1CCc2c(sc(NC(=O)c3cc4cc([N+](=O)[O-])ccc4s3)c2C(N)=O)C1 | 56* | 23 | 11 | -2 |
| 7 | FC(F)(F)c1ccc(CN2CCN(Cc3ccco3)CC2)cc1 | 97* | -8 | -6 | 2 |
| 8 | CC(=O)Nc1ccccc1NC(=O)c1cc(C)ccc1C | -12 | -6 | -7 | 5 |

| no. | Yeast UUG start | PglD inh | RAD52 DNA ctr |
| --- | --- | --- | --- |
| 1 | -1 | -3 | nt |
| 2 | -8 | -5 | nt |
| 3 | -9 | 0 | i |
| 4 | 1 | 0 | nt |
| 5 | nt | nt | nt |
| 6 | -9 | -8 | i |
| 7 | -7 | -3 | i |
| 8 | -14 | -3 | nt |

The list goes on.
| no. | SMILES | RAD52 inh | RAD54 branch | GSIS activator | Casp6 inh |
| --- | --- | --- | --- | --- | --- |
| 9 | CCc1ccc(NC2=CC(=O)CC(C)(C)C2)cc1 | -11 | -7 | -12 | nt |
| 10 | CCCNC1=CC(=O)CC(C)(C)C1 | 98* | nt | nt | -40 |
| 11 | O=C(NCCCl)Nc1ccccc1NS(=O)(=O)c1cccs1 | 7 | -8 | -7 | -3 |
| 12 | O=C(CCl)NCCN1C(=O)S/C(=C\c2cccnc2)C1=O | 90* | nt | 0 | -112 |
| 13 | CC(=O)Nc1cccc(Oc2nc(NCCN(C)C)nc3ccsc23)c1 | 90* | 11 | nt | -73 |
| 14 | Cc1nc2cc(Oc3nc(NCCN(C)C)nc4ccsc34)ccc2s1 | 78* | 23 | 5 | -73 |
| 15 | CN(C)CCNc1nc(Oc2cccc(F)c2)c2sccc2n1 | 58* | -3 | 9 | -33 |
| 16 | COCCNc1nc(Oc2ccc(Cl)c(Cl)c2)c2sccc2n1 | -3 | 4 | -12 | 1 |

| no. | Yeast UUG start | PglD inh | RAD52 DNA ctr |
| --- | --- | --- | --- |
| 9 | -8 | -2 | nt |
| 10 | nt | nt | i |
| 11 | -13 | -4 | nt |
| 12 | nt | nt | i |
| 13 | -2 | 2 | i |
| 14 | nt | -3 | i |
| 15 | nt | -1 | i |
| 16 | -6 | -2 | nt |

Other structures
| no. | SMILES | RAD52 inh | RAD54 branch | GSIS activator | Casp6 inh |
| --- | --- | --- | --- | --- | --- |
| 17 | CC=Cc1ccc2n(c1=O)C[C@H]1[C@H](CO)[C@@H](C(=O)NC3Cc4ccccc4C3)N(CCC)[C@@H]21 (mixture of isomers) | -9 | -3 | -10 | -1 |
| 18 | O=C(NCCN1CCOCC1)C(=O)NCc1ccc2c(c1)OCO2 | -2 | nt | 10 | 0 |
| 19 | CNC(=O)C[C@H]1CC[C@@H]2[C@@H](COc3ccc(NC(=O)c4ccc(OC)cc4)cc3C(=O)N2C)O1 | 3 | 0 | 5 | -1 |
| 20 | Cc1sc2cc3c(c(C(=O)c4ccccc4)[n+]2c1C)-c1cccc2cccc-3c12 | 103* | nt | -50 | 8 |
| 21 | Cc1cc(N2CCN(Cc3nc(-c4ccc(Cl)cc4)oc3C)CC2)cc(C)n1 | 6 | -9 | -16 | -9 |
| 22 | COc1ccc(-c2nc(CN3CCN(c4cc(C)nc(C)c4)CC3)c(C)o2)c2ccccc12 | 82* | 39 | -25 | -32 |
| 23 | COc1ccc(C2=Nn3c(nnc3C3CCCCC3)SC2)cc1OC | nt | -21 | nt | nt |
| 24 | COc1ccc(C2=Nn3c(nnc3-c3ccccc3F)SC2)cc1OC1CCCC1 | -9 | 8 | 55 | 1 |

| no. | Yeast UUG start | PglD inh | RAD52 DNA ctr |
| --- | --- | --- | --- |
| 17 | nt | 3 | nt |
| 18 | nt | nt | nt |
| 19 | -9 | 2 | nt |
| 20 | nt | nt | 61µM* |
| 21 | -4 | -2 | nt |
| 22 | -6 | 5 | i |
| 23 | -4 | 6 | nt |
| 24 | -16 | -2 | i |

(next part)
| no. | SMILES | RAD52 inh | RAD54 branch | GSIS activator | Casp6 inh |
| --- | --- | --- | --- | --- | --- |
| 25 | CCOc1ccc(C(=O)OCC(=O)NCc2ccccc2)cc1OCC | 6 | 8 | 27 | -2 |
| 26 | COc1cccc(/C=C2/Sc3ccc(C(=O)NCCN4CCCC4)cc3NC2=O)c1 | 92* | 41 | 9 | -203 |
| 27 | COc1ccc(/C=C2\Sc3ccc(C(=O)NCCN4CCCCCC4)cc3N(C)C2=O)cc1 | 56* | 6 | 15 | -6 |
| 28 | COc1cccc(/C=C2/Sc3ccc(C(=O)NCCCN4CCCC4)cc3NC2=O)c1 | 82* | ? | 12 | -119 |
| 29 | O=C1Nc2cc(C(=O)NCCN3CCCCCC3)ccc2S/C1=C/c1ccccc1F | -28 | -7 | 4 | -7 |
| 30 | CN1CCN(CCCNCc2cn(CCC#N)c3ccccc23)CC1 | 63* | 15 | 8 | -205 |

| no. | Yeast UUG start | PglD inh | RAD52 DNA ctr |
| --- | --- | --- | --- |
| 25 | 1 | 0 | nt |
| 26 | -14 | 1 | i |
| 27 | -12 | -6 | i |
| 28 | -13 | 2 | i |
| 29 | -16 | 1 | nt |
| 30 | 5 | 1 | i |

Compounds shown so far with a nitro group on carbon:
| no. | SMILES | RAD52 inh | RAD54 branch | GSIS activator | Casp6 inh |
| --- | --- | --- | --- | --- | --- |
| 2 | O=[N+]([O-])c1ccc(COc2ccccc2CN2CCCCC2)cc1 | 1 | 1 | 0 | -5 |
| 3 | O=[N+]([O-])c1ccc(COc2ccccc2CN2CCCC2)cc1 | 77* | 9 | 1 | -23 |
| 6 | CC(C)N1CCc2c(sc(NC(=O)c3cc4cc([N+](=O)[O-])ccc4s3)c2C(N)=O)C1 | 56* | 23 | 11 | -2 |

| no. | Yeast UUG start | PglD inh | RAD52 DNA ctr |
| --- | --- | --- | --- |
| 2 | -8 | -5 | nt |
| 3 | -9 | 0 | i |
| 6 | -9 | -8 | i |

Assay outcomes from PubChem BioAssay.
